# Ab-91 heavy chain CDR variants: yeast mating affinities

Data: MIT Lincoln Laboratory AlphaSeq set, Engelhart et al. 2022, doi:10.1038/s41597-022-01779-4, as distributed in FLAb.

Binding partner: SARS-CoV-2 spike HR2 peptide, sequence PDVDLGDISGINAS.

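Variants in AAYL51 differ from the parent at up to three CDR positions; double and triple changes were sampled at random. In AlphaSeq, yeast of one mating type display the scFv and yeast of the other type display the target. The frequency of each diploid, read from paired DNA barcodes, reflects how well the two displayed proteins bind. Scores were corrected for input abundance and mapped to Kd with protein pairs of known affinity run in the same pool. The assay was run in three technical replicates.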

The variants keep the light chain, the linker and the frameworks of Ab-91 (scFv order VL, three GGGGS repeats, VH).
VL: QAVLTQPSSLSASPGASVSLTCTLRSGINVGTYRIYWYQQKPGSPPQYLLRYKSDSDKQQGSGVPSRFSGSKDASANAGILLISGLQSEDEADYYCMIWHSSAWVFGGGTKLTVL
VH: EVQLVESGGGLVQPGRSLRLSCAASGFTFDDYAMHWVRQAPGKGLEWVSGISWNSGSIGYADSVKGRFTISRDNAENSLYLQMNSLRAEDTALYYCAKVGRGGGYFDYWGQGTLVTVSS

The parent's heavy chain CDRs are GFTFDDYAMH, GISWNSGSIGYADSVK, VGRGGGYFDY; each variant's own CDRs replace them letter for letter. Numbers give log10(Kd / nM), so 0 is 1 nM and 3 is 1 µM. Smaller is tighter. Averages over replicates are reported, and they cover detected replicates only. Where no diploid with the target was found in any replicate, the entry reads "no signal": below detection, most likely a poor binder, though not proof of it. In this assay the parent's reference entry averaged 1.86; its copy inside this library read 0.88. Background: pairings of library AAYL51 with three empty control strains gave a value in 21% of cases (median 4.54, 5th percentile 3.26). Values in that range, when seen in few replicates, are hard to tell from nonspecific mating. The control count says in how many pairings with the empty strains this scFv gave a signal.

CDR-H1 | CDR-H2 | CDR-H3 | mean, log10 nM | seen in | signal with controls
GFTFDDYAMC | GISWNSGEIGYADSVK | VGRGGGYIDY | 4.38 | 1/3 | 3/9
GFTFIDYAMH | GISWNSGSIGYADSVK | EGRGGGIFDY | 5.01 | 2/3 | 4/9
GFTFDDYAMH | GISWNSGDDGYADSVK | VGRGGGYWDY | no signal | 0/3 | 1/9
GFTFDCYAMH | GISWNSGSIGYADSVK | VGRGGGKFDA | no signal | 0/3 | 0/9
GYTFDDYAMH | GISWNRMSIGYADSVK | VGRGGGYFDY | 4.52 | 3/3 | 4/9
TFTFDDYAQH | GISWNSGSIGYADSVK | VGRGGDYFDY | 3.86 | 1/3 | 1/9
GFTFDDYAMH | GISWNSYSIGYADSVK | VGRGGDYFDY | 1.84 | 3/3 | 1/9
GFTFDDYAMY | GISWNSGSIGYADSVK | VGRGGGYCDY | 4.77 | 3/3 | 7/9
GFKFDDYAMH | GISWNSGSIGYADSVV | VGRGGGYFDT | 1.84 | 2/3 | 0/9
GFTFDDYAMH | GESWTSGSIGYADSVK | VGRGGGYFTY | no signal | 0/3 | 1/9
GFTFDDYAMH | GISWNSGSIGYADSNK | VGRGCCYFDY | 4.92 | 3/3 | 3/9
GFTFDDYAMH | GISWNSGSIGYADSRK | VQSGGGYFDY | no signal | 0/3 | 0/9
GNTFDDYAYH | GISWYSGSIGYADSVK | VGRGGGYFDY | 5.69 | 2/3 | 3/9
GFTFDDYAMH | GIVWNRGSIGYADSVK | VGRGGGYFDY | no signal | 0/3 | 0/9
GFTFDDYAMH | GISWNSGSISYATSVK | VGRGGGYFIY | 4.85 | 1/3 | 0/9
GFAFDDYAMH | GISWNSGSIGYAGSVK | VCRGGGYFDY | 5.59 | 2/3 | 7/9
GFTFDDYAMH | GISWNSGSIGQADSVK | VGRGPGYFCY | 3.57 | 2/3 | 4/9
GFTCDDYAMH | GISWNSGSISYADIVK | VGRGGGYFDY | 4.06 | 1/3 | 1/9
GWTFDDYARH | GISWNSGSIGYADSVK | VGRGGGYFDA | no signal | 0/3 | 1/9
GFTFDDYAMH | GISWNAGSIGDADSVK | VHRGGGYFDY | no signal | 0/3 | 0/9
GFTFDDYAMH | GSSWNSGSIGYADSTW | VGRGGGYFDY | 4.95 | 2/3 | 4/9
GFTFDDYAPH | GPSENSGSIGYADSVK | VGRGGGYFDY | no signal | 0/3 | 0/9
GFTFDDYAMH | GIMWNSGSIGYADSVK | VGRGGIYRDY | no signal | 0/3 | 1/9
TFTFDDYAMH | GESWNSGSIGYADSVK | SGRGGGYFDY | 5.04 | 1/3 | 0/9
GFTFDDYANH | GISWNSGSIGYADSVK | VGRGHGYFDY | 4.19 | 2/3 | 4/9
GMTFDDYAMH | GISWNSGSIGYADSVK | VGRGGAYFDK | 5.78 | 3/3 | 4/9
GFTFDDYAMH | GISWNSGSIDYADSVK | VGRQGGYFDY | no signal | 0/3 | 0/9
GFTFDDAAMH | GISDNSGSIGYADSKK | VGRGGGYFDY | 4.17 | 1/3 | 2/9
GFTFDDYAMH | GVSDNSGSIGYADSVK | VGRGGGYFDY | 4.87 | 2/3 | 3/9
GFTFDDYAMP | GISWNSGSIGYADHVK | VGKGGGYFDY | no signal | 0/3 | 0/9
GFTFKDGAMH | GISWNSGSISYADSVK | VGRGGGYFDY | 4.13 | 1/3 | 0/9
GFTFDDYAMH | GISWDSGSIGYADSVK | VGRGGGYCDC | 3.37 | 1/3 | 3/9
NFTFLDYAMH | GISWNSGSIGYADSVK | RGRGGGYFDY | 4.08 | 1/3 | 1/9
GFTFDDYAMH | GISWNSGSIGPADSVK | VGRGGNYLDY | 5.55 | 3/3 | 4/9
GFTWDDYAMH | GISWNTGSIGYADLVK | VGRGGGYFDY | 5.38 | 1/3 | 1/9
GFTFDDYAMH | HISWNSGSIGYKDSVK | VGRGGGYFDY | no signal | 0/3 | 3/9
GSTKDDLAMH | GISWNSGSIGYADSVK | VGRGGGYFDY | no signal | 0/3 | 0/9
GFTFDDYAAH | GISQNSGSIGYAMSVK | VGRGGGYFDY | no signal | 0/3 | 0/9
GFTFFDNAMH | GISWNSGSIGYADSVK | VGRGGGYFDP | 4.90 | 2/3 | 2/9
GFTFDDYAMH | RISWNSGEIGYADHVK | VGRGGGYFDY | no signal | 0/3 | 1/9
GFTFDDYAAH | GISTNSGSIGYADSDK | VGRGGGYFDY | 4.42 | 2/3 | 2/9
GFTFDDPAMH | GISWNSGSIGYADSVK | VMRGGGMFDY | 4.82 | 2/3 | 2/9
GFTFDDYAMH | GISWNSGSIGYADEVK | VGRGGWYFDH | 4.66 | 2/3 | 3/9
GFTPDDYAMH | GISWNSGSIGYADSNK | VGRGGGYHDY | 5.60 | 2/3 | 3/9
GFTFDDYAKH | GISWNSGSPGYADSVK | VGRGGGYFMY | 4.87 | 2/3 | 3/9
GFTFDDYAKH | GISWNSGNIGYADSVC | VGRGGGYFDY | no signal | 0/3 | 3/9
GQTFDDYAMH | GISWNSGSIGYLDSVK | VGRGGGAFDY | no signal | 0/3 | 0/9
GFTFDDYADH | GMSWNSGSIGYADSVK | VGRGGGYFEY | no signal | 0/3 | 3/9
GFTFDDCAMH | GISWNSGAIGYADSVK | VGRGGGYFNY | no signal | 0/3 | 0/9
GFTFDDYAMH | GISWNSRSIGYADSTK | VGRCGGYFDY | 4.08 | 3/3 | 2/9
GFTFNDYAMH | GASWNSGSIGYADVVK | VGRGGGYFDY | no signal | 0/3 | 1/9
GATFDDYAMH | DISWNSGSIGDADSVK | VGRGGGYFDY | no signal | 0/3 | 2/9
GATFDDYAMH | GISANSGPIGYADSVK | VGRGGGYFDY | 4.00 | 1/3 | 0/9
GFTFDDYALH | GISWNSGSIGYADSVK | VGRGGGYFDW | 2.03 | 3/3 | 3/9
GFTFDDKAMQ | GISWNSGYIGYADSVK | VGRGGGYFDY | no signal | 0/3 | 1/9
GFTFDDGFMH | GISWNSGSIGYADSVK | VGRGGGYFDY | no signal | 0/3 | 0/9
GFTFDFPAQH | GISWNSGSIGYADSVK | VGRGGGYFDY | 5.44 | 1/3 | 1/9
GFTFDDYAMH | GISWNSGSIGKADSVM | VGRGPGYFDY | 3.97 | 2/3 | 3/9
AFTFDDYAMH | GISWNSGSIGYAWSVK | VGRGGTYFDY | no signal | 0/3 | 0/9

The first 7 entries again:

| CDR-H1 | CDR-H2 | CDR-H3 | mean, log10 nM | seen in | signal with controls |
|---|---|---|---|---|---|
| GFTFDDYAMC | GISWNSGEIGYADSVK | VGRGGGYIDY | 4.38 | 1/3 | 3/9 |
| GFTFIDYAMH | GISWNSGSIGYADSVK | EGRGGGIFDY | 5.01 | 2/3 | 4/9 |
| GFTFDDYAMH | GISWNSGDDGYADSVK | VGRGGGYWDY | no signal | 0/3 | 1/9 |
| GFTFDCYAMH | GISWNSGSIGYADSVK | VGRGGGKFDA | no signal | 0/3 | 0/9 |
| GYTFDDYAMH | GISWNRMSIGYADSVK | VGRGGGYFDY | 4.52 | 3/3 | 4/9 |
| TFTFDDYAQH | GISWNSGSIGYADSVK | VGRGGDYFDY | 3.86 | 1/3 | 1/9 |
| GFTFDDYAMH | GISWNSYSIGYADSVK | VGRGGDYFDY | 1.84 | 3/3 | 1/9 |